In patent publication US9708318B2, “Bicyclic heterocycles as FGFR4 inhibitors” (Incyte Corporation, priority 2015, dated 2017):
pIC50: −log10 of the molar value. Where two headings read alike, the source gives them in different places.

By UniProt entry, the sequences of proteins in these tests, tags left out. Residues count along the entry.
UniProt P21802, 22-821: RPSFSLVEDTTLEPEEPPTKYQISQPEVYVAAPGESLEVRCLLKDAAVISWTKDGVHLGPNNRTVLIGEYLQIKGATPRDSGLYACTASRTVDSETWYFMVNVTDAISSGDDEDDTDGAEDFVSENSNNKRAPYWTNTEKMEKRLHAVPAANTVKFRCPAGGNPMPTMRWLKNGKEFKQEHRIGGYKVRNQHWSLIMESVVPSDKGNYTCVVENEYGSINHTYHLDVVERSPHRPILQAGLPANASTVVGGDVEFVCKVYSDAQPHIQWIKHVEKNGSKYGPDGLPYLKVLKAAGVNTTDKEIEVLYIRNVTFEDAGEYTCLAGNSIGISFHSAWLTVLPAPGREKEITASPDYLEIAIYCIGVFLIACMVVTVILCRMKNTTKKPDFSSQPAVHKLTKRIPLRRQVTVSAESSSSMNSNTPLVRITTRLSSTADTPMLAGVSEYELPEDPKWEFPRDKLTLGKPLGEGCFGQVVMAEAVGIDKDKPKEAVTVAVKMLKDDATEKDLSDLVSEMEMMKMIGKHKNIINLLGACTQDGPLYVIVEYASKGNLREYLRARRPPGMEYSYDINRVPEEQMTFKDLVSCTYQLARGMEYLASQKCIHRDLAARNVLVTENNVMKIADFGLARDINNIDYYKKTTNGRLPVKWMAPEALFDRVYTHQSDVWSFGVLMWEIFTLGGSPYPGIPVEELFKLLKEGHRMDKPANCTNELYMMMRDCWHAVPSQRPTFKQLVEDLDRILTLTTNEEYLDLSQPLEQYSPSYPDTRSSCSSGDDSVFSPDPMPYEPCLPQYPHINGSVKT
UniProt P22607, 23-806: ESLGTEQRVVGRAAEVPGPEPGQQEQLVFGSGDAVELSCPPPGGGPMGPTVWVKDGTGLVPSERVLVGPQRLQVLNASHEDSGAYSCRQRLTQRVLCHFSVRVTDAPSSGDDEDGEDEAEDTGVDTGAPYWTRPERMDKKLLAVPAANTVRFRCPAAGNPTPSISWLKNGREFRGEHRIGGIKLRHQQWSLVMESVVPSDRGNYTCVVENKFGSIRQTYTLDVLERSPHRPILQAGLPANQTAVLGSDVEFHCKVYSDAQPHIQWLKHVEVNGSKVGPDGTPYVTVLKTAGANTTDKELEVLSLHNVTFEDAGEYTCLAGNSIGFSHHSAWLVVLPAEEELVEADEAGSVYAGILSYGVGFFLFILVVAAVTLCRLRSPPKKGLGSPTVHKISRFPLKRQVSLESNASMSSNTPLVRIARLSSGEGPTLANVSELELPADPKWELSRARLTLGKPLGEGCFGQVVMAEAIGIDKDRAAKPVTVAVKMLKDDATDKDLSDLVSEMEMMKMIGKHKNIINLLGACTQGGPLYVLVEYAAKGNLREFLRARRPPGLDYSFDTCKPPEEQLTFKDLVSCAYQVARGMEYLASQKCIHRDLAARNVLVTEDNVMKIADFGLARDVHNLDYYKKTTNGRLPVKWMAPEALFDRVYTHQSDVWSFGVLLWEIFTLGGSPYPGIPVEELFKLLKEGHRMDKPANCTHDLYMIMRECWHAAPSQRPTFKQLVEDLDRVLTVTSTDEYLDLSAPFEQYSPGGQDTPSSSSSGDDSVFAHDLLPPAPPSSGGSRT
UniProt P11362, 22-822: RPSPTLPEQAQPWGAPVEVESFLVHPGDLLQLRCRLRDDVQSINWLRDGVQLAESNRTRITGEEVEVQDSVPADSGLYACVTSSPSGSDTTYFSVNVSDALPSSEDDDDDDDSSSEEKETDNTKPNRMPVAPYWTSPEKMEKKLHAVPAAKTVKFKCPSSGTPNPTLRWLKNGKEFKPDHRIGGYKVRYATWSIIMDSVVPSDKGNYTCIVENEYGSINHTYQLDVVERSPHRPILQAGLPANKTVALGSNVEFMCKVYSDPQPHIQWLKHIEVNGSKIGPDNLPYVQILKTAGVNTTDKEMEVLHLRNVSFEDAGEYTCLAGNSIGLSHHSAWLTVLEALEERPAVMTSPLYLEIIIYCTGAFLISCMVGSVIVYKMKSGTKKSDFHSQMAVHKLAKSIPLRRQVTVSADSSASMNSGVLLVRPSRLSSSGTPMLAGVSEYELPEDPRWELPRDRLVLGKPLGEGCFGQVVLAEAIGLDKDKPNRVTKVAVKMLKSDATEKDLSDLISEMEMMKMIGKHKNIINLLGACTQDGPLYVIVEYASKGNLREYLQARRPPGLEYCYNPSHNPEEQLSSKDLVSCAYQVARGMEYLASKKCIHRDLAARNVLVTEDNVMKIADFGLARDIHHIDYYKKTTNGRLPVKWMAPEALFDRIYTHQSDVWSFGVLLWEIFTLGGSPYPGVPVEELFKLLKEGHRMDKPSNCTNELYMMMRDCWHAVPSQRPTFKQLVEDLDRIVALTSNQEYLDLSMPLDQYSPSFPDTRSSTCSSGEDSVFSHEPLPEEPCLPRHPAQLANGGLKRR
UniProt P22455, 22-802: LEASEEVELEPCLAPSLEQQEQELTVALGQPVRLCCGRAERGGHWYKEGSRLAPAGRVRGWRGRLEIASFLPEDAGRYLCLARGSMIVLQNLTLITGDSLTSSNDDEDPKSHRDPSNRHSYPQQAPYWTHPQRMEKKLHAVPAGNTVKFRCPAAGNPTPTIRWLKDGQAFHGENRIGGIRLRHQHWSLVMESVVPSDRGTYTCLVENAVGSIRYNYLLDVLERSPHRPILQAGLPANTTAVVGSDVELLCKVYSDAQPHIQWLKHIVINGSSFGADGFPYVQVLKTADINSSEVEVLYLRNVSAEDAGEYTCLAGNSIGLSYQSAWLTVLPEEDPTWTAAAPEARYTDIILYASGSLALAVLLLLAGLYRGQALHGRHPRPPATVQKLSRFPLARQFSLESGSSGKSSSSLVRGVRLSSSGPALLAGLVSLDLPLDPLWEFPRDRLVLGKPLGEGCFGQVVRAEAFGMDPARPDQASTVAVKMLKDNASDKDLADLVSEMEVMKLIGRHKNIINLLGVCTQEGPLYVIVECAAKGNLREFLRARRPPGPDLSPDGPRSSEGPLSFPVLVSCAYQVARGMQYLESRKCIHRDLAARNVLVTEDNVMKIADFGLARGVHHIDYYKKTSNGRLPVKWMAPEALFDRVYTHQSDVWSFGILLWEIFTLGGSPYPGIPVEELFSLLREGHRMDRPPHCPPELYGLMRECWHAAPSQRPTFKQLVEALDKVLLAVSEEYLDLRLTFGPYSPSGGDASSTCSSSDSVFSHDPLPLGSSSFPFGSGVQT

Columns and labels:
[1] = target: FGFR2 (Homo sapiens (Human), UniProt P21802); test: FGFR Enzymatic Assay (FRET peptide phosphorylation), FGFR2; format: biochemical; conditions: pre-incubated for 4 hours
Experimental: (§1) The inhibitor potency of the exemplified compounds was measured in an enzyme assay that measures peptide phosphorylation using FRET measurements to detect product formation. Inhibitors were serially diluted in DMSO and a volume of 0.5 μL was transferred to the wells of a 384-well plate.
(§2) The enzymes were purchased from Millipore or Invitrogen.
(§3) GraphPad prism3 was used to analyze the data.

[2] = target: FGFR3 enzyme (Homo sapiens (Human), UniProt P22607); test: FGFR Enzymatic Assay (FRET peptide phosphorylation), FGFR3; format: biochemical; conditions: pre-incubated for 4 hours
Experimental: as §1, §3

[3] = target: FGFR1 (Homo sapiens (Human), UniProt P11362); test: FGFR Enzymatic Assay (FRET peptide phosphorylation), FGFR1; conditions: for IC50: FGFR1 IC50 (nM), pre-incubated for 5 to 10 minutes
[4] = target: FGFR4 (Homo sapiens (Human), UniProt P22455); test: FGFR Enzymatic Assay (FRET peptide phosphorylation), FGFR4; format: biochemical; conditions: pre-incubated for 5 to 10 minutes
Experimental: as §1, §2, §3

| SMILES | pIC50 [2] | pIC50 [4] | IC50 [3] [nM] | further results |
| --- | --- | --- | --- | --- |
| CCN1C(=O)N(c2c(F)c(OC)cc(OC)c2F)Cc2cnc(-c3ccc(C(=O)NC)nc3)cc21 [Example 24, 5-(3-(2,6-difluoro-3,5-dimethoxyphenyl)-1-ethyl-2-oxo-1,2,3,4-tetrahydropyrido[4,3-d]pyrimidin-7-yl)-N-methylpicolinamide] | > 8.00 | – | – | pIC50 [1]: > 8.00 |
| CCN1C(=O)N(c2cc(OC)cc(C(=O)NC)c2F)Cc2cnc(-c3ccc(C4(C#N)CCC4)nc3)cc21 [Example 28, 3-(7-(6-(1-cyanocyclobutyl)pyridin-3-yl)-1-ethyl-2-oxo-1,2-dihydropyrido[4,3-d]pyrimidin-3(4H)-yl)-2-fluoro-5-methoxy-N-methylbenzamide] | – | – | – | FGFR1/FGFR3 IC50 ratio ([2]; FGFR3 selectivity): >10; FGFR4/FGFR3 IC50 ratio ([2]; FGFR3 selectivity): >25 |
| COc1cc(OC)c(F)c(N2Cc3cnc(-c4cn(C)nc4C)cc3N(C)C2=O)c1F [Example 76, 3-(2,6-difluoro-3,5-dimethoxyphenyl)-7-(1,3-dimethyl-1H-pyrazol-4-yl)-1-methyl-3,4-dihydropyrido[4,3-d]pyrimidin-2(1H)-one] | 7.52 to 8.00 | – | – | – |
| COc1cc(OC)c(F)c(N2Cc3cnc(-c4cn(C)nc4C)cc3N(Cc3cnco3)C2=O)c1F [Example 80, 3-(2,6-difluoro-3,5-dimethoxyphenyl)-7-(1,3-dimethyl-1H-pyrazol-4-yl)-1-(oxazol-5-ylmethyl)-3,4-dihydropyrido[4,3-d]pyrimidin-2(1H)-one] | > 8.00 | – | – | – |
| COc1cc(OC)c(F)c(N2Cc3cnc(-c4cn(C)nc4C)cc3N(Cc3cn(C)nc3C)C2=O)c1F [Example 101, 3-(2,6-difluoro-3,5-dimethoxyphenyl)-7-(1,3-dimethyl-1H-pyrazol-4-yl)-1-((1,3-dimethyl-1H-pyrazol-4-yl)methyl)-3,4-dihydropyrido[4,3-d]pyrimidin-2(1H)-one] | – | – | – | pIC50 ([3]; read-out: FGFR1 IC50, pre-incubated for 4 hours): > 8.00 |
| COc1cc(OC)c(F)c(N2Cc3cnc(-c4cn(C)nc4C)cc3N(c3ccc4c(c3)C(=O)N(C)C4)C2=O)c1F [Example 120, 3-(2,6-difluoro-3,5-dimethoxyphenyl)-7-(1,3-dimethyl-1H-pyrazol-4-yl)-1-(2-methyl-3-oxoisoindolin-5-yl)-3,4-dihydropyrido[4,3-d]pyrimidin-2(1H)-one] | – | 6.70 to 7.52 | 30 to 200 | – |
| COc1cc(OC)c(F)c(N2Cc3cnc(-c4ccn(C)n4)cc3N(c3ccc(C#N)cc3)C2=O)c1F [Example 142, 4-(3-(2,6-difluoro-3,5-dimethoxyphenyl)-7-(1-methyl-1H-pyrazol-3-yl)-2-oxo-3,4-dihydropyrido[4,3-d]pyrimidin-1(2H)-yl)benzonitrile] | – | 6.70 to 7.52 | 30 to 200 | – |
| COc1cc(OC)c(F)c(N2Cc3cnc(-c4cnn(C)c4)cc3N(c3ccc(C#N)cc3)C2=O)c1F [Example 144, 4-(3-(2,6-difluoro-3,5-dimethoxyphenyl)-7-(1-methyl-1H-pyrazol-4-yl)-2-oxo-3,4-dihydropyrido[4,3-d]pyrimidin-1(2H)-yl)benzonitrile] | – | 6.70 to 7.52 | 30 to 200 | – |
